# Measurements as given in publication PMC6803667 (Scientific Reports, 2019).
# Values joined by “and” are separate entries in the source; they are usually repeats but may differ in a detail not shown here. Equal values may be shown once.
# Biological target: T1, third WW domain of human NEDD4 (hNEDD4-WW3), unlabelled (human, UniProt P46934 834-878)
# T1 construct: not shown: GST, N-terminal, cleaved; His tag, N-terminal, cleaved
# Test: ITC
# Conditions: both partners purified
binder,measurement,value
"EYPPYPPPPYPSG (acetylated N-terminus, amidated C-terminus) [p53bp2 human peptide]",Kd,4.1 µM and 5.3 µM and 9.1 µM
same,dH,-10.9 kcal/mol and -12.7 kcal/mol
